# Yeast mating assay B: variants of the scFv Ab-14

The measurements come from Li et al. 2023 (doi:10.1038/s41467-023-39022-2) through the FLAb antibody collection.

All variants were tested on one target, the spike HR2 peptide PDVDLGDISGINAS (SARS-CoV-2).

Each scFv is VH, a 15-residue (Gly4Ser)3 linker, VL, as in the parent Ab-14, and differs from it in the CDRs of the light chain only.
VH: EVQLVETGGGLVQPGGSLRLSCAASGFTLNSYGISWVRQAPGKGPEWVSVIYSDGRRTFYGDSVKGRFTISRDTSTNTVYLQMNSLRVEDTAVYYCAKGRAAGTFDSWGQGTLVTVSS
VL: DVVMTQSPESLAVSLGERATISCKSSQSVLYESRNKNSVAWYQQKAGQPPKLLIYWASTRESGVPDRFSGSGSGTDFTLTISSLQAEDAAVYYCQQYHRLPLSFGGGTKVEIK

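These sequences belong to a second round, designed from the earlier measurements on random variants of the parent. Several design methods are mixed in this list. The scFvs were displayed on barcoded MATa yeast, the peptide on MATalpha yeast. The frequency of each diploid, read from paired DNA barcodes, reflects how well the two displayed proteins bind. A regression on co-assayed BCL2-family reference pairs converts the normalised counts of each replicate to an apparent Kd. There are six technical replicates.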

The parent's light chain CDRs are KSSQSVLYESRNKNSVA, WASTRES, QQYHRLPLS; each variant's own CDRs replace them letter for letter. Values are apparent Kd, the geometric mean of the replicates that gave a signal; lower means stronger binding. A pair that was not seen in any replicate is written "no signal"; this usually means weak binding, but a binder can also be missed.

Kd (apparent),replicates with signal,signal with controls,CDR-L1,CDR-L2,CDR-L3
1.0 nM,6/6,0/18,KVSQSWLYESRNKNSVA,NASERES,QQYHRLPLS
6.8 nM,6/6,0/18,KLDQSGLYGSRNKNSVA,HASYRES,QQYHRLPLY
4.5 nM,6/6,1/18,KLSQVTHVESRNKNSIA,EMVTREY,QQYDRLPLS
2.8 nM,6/6,1/18,QLAVDRLQEYEMGDAIA,GKTLRVD,QQYARLPLS
6.7 nM,5/6,0/18,FLQAFGEESNRNSKNIA,SKETRQV,QQYMRLPLS
200 nM,2/6,2/18,KLSLFYRVETQQKNSVA,DNSTRES,QDYDRLPLS
1.5 nM,6/6,0/18,KSSQSEKFESRNKNSVA,DASTRES,QQYHRLPLS
3.6 nM,6/6,0/18,KISGYLQKESKNKHSVA,EMVNRES,QQYDRLPLS
2.2 nM,6/6,0/18,KSSQSVLYEARNKNSVA,EASTRES,QQYHRLPLS
65 nM,6/6,1/18,KSEDGVDDLERNDNSVA,WASTRES,QQYHRLPLS
13 nM,1/6,0/18,KKSQSVLYESRNKNSVA,WASTGES,QQYHRLPLS
460 pM,6/6,1/18,KLSQSVLYESRNKNSVA,SASTRSS,QQYHRLPLS
18 nM,6/6,1/18,IISQSMLYESATHNSIA,QTSTREE,QQYAHLPLI
890 pM,6/6,0/18,KYSQSWLYESRNKNSVA,NASQRES,QQYHRLPLS
2.5 nM,6/6,1/18,KLSQQNLYESRMMNSVA,MASQRES,QQYHRLPLS
240 nM,1/6,0/18,KSSQSVLYEEWNKNSVA,WASTRES,QQYWRLPLS
210 pM,6/6,0/18,KLMQEDEYQSRNKNSVA,HASLRES,QQYHRLPLS
3.9 nM,6/6,1/18,LLKGMVEGQLYKQNAIA,NAEERDR,QQYNHLPLS
1.4 nM,6/6,0/18,KLSQSDLYESRNKNSVA,EASTREE,QQYHRLPLS
8.2 nM,6/6,3/18,KSSYSVLYESFNKNSVA,EASTRES,AQYHRLPLS
360 nM,3/6,3/18,KLRQSTLYESRNKNQVA,WASTRES,QQYHRLPLS
2.2 nM,6/6,1/18,KSVQSWLYESRNKNSVA,HASQREQ,QQYHRLPLS
no signal,0/6,0/18,KISTSALYESINKNNVA,ELSTRGS,QQYERLPLS
770 pM,6/6,1/18,KSSGSWLYEDRVKNSVA,GASTRES,QQYHRLPLS
39 nM,3/6,0/18,KIRWQQYSQSEMEDNIA,QESTRHQ,QQYFRLPLS
140 nM,6/6,2/18,KLSMSMLMESRKKNSVA,ENSTRES,QHYHRLPLS
480 pM,6/6,0/18,KFQQSVLYESRNKNSVA,DASQRES,QQYHRLPLS
25 nM,6/6,1/18,WLSMSVMQESRNKNSVA,SASTREL,QQYHRLPLS
6.0 nM,6/6,2/18,MIGEMLMQGAYKKNSVA,QANLRAE,QHYNRLPLE
960 pM,6/6,0/18,KIEQGVLYESRNKGSVA,GASVRES,QQYHRLPLS
6.0 nM,6/6,1/18,KIGMTLNQLMHKKNNVA,DLVEREM,QQYFRLPLS
8.3 nM,6/6,2/18,NLVEMEGTNQTKIGNIA,SVDQRMS,QQYQRLPLI
64 nM,6/6,2/18,SLRDKIVGGDKYRNAIA,GRQVRAK,QQYHRLPLS
1.1 nM,6/6,2/18,KLMQEMLYESRADNSVA,NASQREE,QQYHRLPLS
100 nM,5/6,0/18,TITGMVEEIGTTMKNIA,EGEFRCM,QQYSRLPLS
500 pM,6/6,0/18,KLSWSVLYESRNKNSVA,GASTRES,QQYHRLPLS
1.8 nM,6/6,2/18,KASDGELYESRDDNSVA,DASKRES,QQYHRLPLS
6.8 nM,6/6,0/18,KYSFSDLNESRNSNSVA,EASTRES,QQYHRLPLS
7.6 nM,6/6,0/18,TLLYGPTEARKDMHNIA,DMSERAE,QQYHLLPLI
3.9 nM,6/6,0/18,NLNTYYEGGFLNTDNIA,HGNMVEA,QQYDRLPLS
1.3 nM,6/6,1/18,KLYQMTGIESHNKNSLA,DANRRES,QQYHRLPLS
580 nM,3/6,0/18,KSMQSVLYENRNKNSVA,WASTRES,QQYHRLPLS
500 pM,6/6,0/18,KLPQWDLYEGRNKNSVA,SASTRSD,QQYHRLPLS
2.2 nM,6/6,1/18,KQSLSVLFESRNKNSVA,NASTRES,QQYHRLPLS
140 nM,6/6,0/18,IVSQLMLWGMHAKNSIA,EAEKRIN,QQYHHLPLI
6.8 nM,2/6,0/18,IVSQLMLWGYHAKNSIA,EAEKRLN,QQYHHLPLI
no signal,0/6,0/18,KLLDWYYGTTAMDSNIA,DQALEMD,QQYDRLPLT
450 pM,6/6,1/18,MISDLTMYGSTNKNSVA,DLSTRGS,QQYHRLPLS
7.3 nM,6/6,1/18,SLYENYQMGGQHTNAVA,DANQMMR,QHYNRLPLA
1.5 nM,6/6,0/18,KLSQSVLYESRNKNSVA,NASTRFS,QQYHRLPLS
720 pM,6/6,1/18,KLSYSVLYESRNKNSVA,NASTRES,QQYHRLPLS
5.4 nM,6/6,0/18,MISQSFLIGMKMKNSVA,QTSTREE,QQYDRLPLI
1.4 nM,6/6,0/18,KVDISQLLESRNKNSVA,NASTRCS,QQYHRLPLS
8.5 nM,6/6,0/18,KSSGSVLYEDKNVNSVA,HASQRLS,QQYHRLPLS
53 nM,6/6,0/18,KLLDYEYGTWAMNSAIA,NASLESD,QQYDRLPLT

Background: pairings of all light chain designs with three empty control strains gave a value in 4% of cases (median 430 nM, 5th percentile 38 nM). Values in that range, when seen in few replicates, are hard to tell from nonspecific mating. For each scFv, signals with the empty controls are counted beside the result. In the paper, a design with two or fewer of six values counts as a poor binder. The range of this assay differs from that of the first round, and the authors advise against merging the two.